In patent publication US20180360953A1 (priority 2015, published 2018):

Tested on: spleen cells
Type: cell-based, mice
Settings: for CD138+CD19+IgG+ and CD138+CD19+IgA+ cells by intracellular staining / surface IgG and surface IgA on induced CD138+ CD19+ cells: spleen cells, 2 days culture

SMILES | frequency of CD138+ among CD19+ cells | frequency of myeloid cells (CD11b+) and B cells (CD19+) | CD138+CD19+IgG+ and CD138+CD19+IgA+ cells by intracellular staining | surface IgG and surface IgA on induced CD138+ CD19+ cells | frequency of T cell subsets
Cc1c(-c2ccnn2C)cc(C(=O)NCc2ccc(S(C)(=O)=O)cn2)c(=O)n1-c1cccc(C(F)(F)F)c1 [Alvelestat, alvelestat] | increased | not affected | further confirmed | expressed surface IgG or a low but significant percentage of surface IgA | 
CC(C)(C)C(=O)Oc1ccc(S(=O)(=O)Nc2ccccc2C(=O)NCC(=O)O)cc1 [Sivelestat, sivelestat] | increased | did not affect | confirmed induction | expressed surface IgG or a low but significant percentage expressed surface IgA | did not affect
